Protein sequences, listed by entry. Tags and fused reporters are not part of them.
UniProt Q9GZX7, whole entry: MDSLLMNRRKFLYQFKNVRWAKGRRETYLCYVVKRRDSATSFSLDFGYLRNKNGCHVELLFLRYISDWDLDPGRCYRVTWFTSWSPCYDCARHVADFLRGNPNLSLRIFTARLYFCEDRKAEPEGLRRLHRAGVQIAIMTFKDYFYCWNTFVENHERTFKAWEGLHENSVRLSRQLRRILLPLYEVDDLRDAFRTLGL

Only a part is listed here, and it is no random draw. Inconclusive results are not listed. Active and inactive are the calls of the source. The call rests on the fitted dose curve; in most records, active means well fitted inhibition curve with a large enough effect; inconclusive means small, poorly fitted or top-dose-only effect; inactive means no such curve, though single readings can be large or run the other way.
These compounds were tested against Single-stranded DNA cytosine deaminase (Homo sapiens) (UniProt Q9GZX7) (assay: Primary qHTS assay for inhibitors of Activation Induced Cytidine Deaminase (AID): AID signal). Details: AID deamination FRET fluorescence, UDG-coupled, 4 h; at 115 µM (top of the series).
Source text: Assay Provider (PI) Patricia Gearhart Ph.D.
National Institute on Aging
National Institute of Health (NIH), Bethesda, MD
Assay Provider (PI) Rahul Kohli Ph.D.
Perelman School of Medicine
University of Pennsylvania, Philadelphia, PA
Activation-Induced Deaminase (AID) is a cytosine deaminase which converts cytosine into uracil within stretches of ssDNA. The presence of uracil in DNA initiates a cascade of mutagenic DNA repair to introduce point mutations and DNA double strand breaks. Specific targeting of AID to the immunoglobulin heavy chain loci (Igh) promotes mutagenesis in the antibody variable region for somatic hypermutation (SHM) or switch regions leading to class switch recombination (CSR). However, AID also plays a role in accumulating unnecessary mutations across the genome. Mis-targeting of AID results in the initiation of tumor development and leads to greater drug resistance among cancer cells when continually expressed. To identify an AID inhibitor, a small molecule library will be screened in collaboration with NCATS core facility at NIH. To confirm biological function, inhibitors will be examined in an in vitro murine B-cell activation assay and subsequent secondary validation screens. Top molecules will be further screened to identify inhibitory efficacy against a wild type primary splenocytes assay. Using these approaches, we hope to identify a small molecule with great efficacy and low toxicity for use as a molecular probe to further characterize AID's intricacies, or even as a therapeutic.
A FRET based analysis of cytosine deamination, was developed to identify potential inhibitors of AID catalytic activity. This screen has two signal output, Read 1 evaluates the AID inhibition response. The second readout (Read 2) evaluates UDG response and is uses as a counterscreen to exclude false positive inhibitors. Inhibition in AID and inactivity in the UDG signal is the desired outcome for this assay.
SEQUENCE No. (e.g., 1, 2, 3, etc.); […] (e.g., Cells, Incubation, Reagent, etc.); VALUE; DESCRIPTION
1a; Reagent; 3 uL; [4/3x] 1 uM AID/2.67 U/mL UDG
1b; Reagent; 3 uL; 2 U/mL UDG
1c; Reagent; 3 uL; 1 uM AID
2a; Compound; 46 nL; Follow-up plates (0.64 uM - 10 mM)
2b; Control; 46 nL; ATA ([…] - 10 mM)
3; Time; 10 min; incubation at room temperature
5; Time; 4 hr; incubation at room temperature
6; Reagent; 4 uL; [2x] 250 mM NaOH
7; Time; 15 sec; centrifuge at 1000 rpm
8; Time; 30 min; incubation at room temperature
9a; Detection; fluorescence (Read 1: AID); EnVision (PerkinElmer) plate reader, 540 excitation and 590 emission filters
9b; Detection; fluorescence (Read 2: UDG); EnVision (PerkinElmer) plate reader, 560 excitation and 665 emission filters
NOTES (numbers refer to sequence above)
1a; Reagents were dispensed in a medium-binding black solid-bottom Greiner plates (789176F) using a BioRptr liquid dispenser. Dispense 3 uL of [4/3x] 1 uM AID (provided by Kohli lab) and [4/3x] 2 U/mL UDG (NEB M0280L) into columns 1, 2, 5 to 48.
1b; Dispense 3 uL of [4/3x] 2 U/mL UDG into column 3.
1c; Dispense 3 uL of [4/3x] 1 uM AID into column 4.
2a; Compound (7-points [uM] (0.64; 3.2; 16; 80; 400; 2,000; 10,000; 20,000) double pin-transferred (Dip Factor = 2) using the Kalypsys (Wako USA) pintool equipped with a 1536 pinhead for a final concentration range of 7.32 nM - 114 uM.
2b; 10 mM Aurintricarboxylic Acid (Sigma A1895) (ATA, 8-point, n = 2, 1:2.5 dilution in column 2) double pin-transferred (Dip Factor = 2) using the Kalypsys (Wako USA) pintool equipped with a 1536 pinhead for a [final] range of 186 nM - 114 uM.
3; Room temperature incubation.
4; Dispense 1 uL of substrate mixture from the Kohli lab [4x] […] DJC20 and [4x] 250 nM DJC23 into columns 1 to 48 .
5; Room temperature incubation.
6; Dispense 4 uL of substrate mixture [2x] 250 mM NaOH into columns 1 to 48.
7; Centrifugation step to remove bubbles.
8; Room temperature incubation
9a; Fluorescence signal (column label AID) was read using the EnVision plate reader. […]
O=C(NCC1(N2CCCCC2)CCCCC1)c1c[nH]c2ccccc12 was tested, and the activity change, negative = inhibition was inactive: -20.9%. For O=C(NCC1(N2CCOCC2)CCCCC1)c1ccc(Cl)cc1, the activity change, negative = inhibition was inactive: -27.5%. COc1ccccc1C(=O)NCC1(N2CCOCC2)CCCCC1 was tested, and the activity change, negative = inhibition was inactive: 11.7%. CC1CN(CCc2ccccc2)CCC1=O (stereo not drawn) was tested, and the activity change, negative = inhibition was inactive: 2.92%. In the case of Fc1ccc(CN2CCC(Nc3ccccc3Cl)CC2)cc1, the activity change, negative = inhibition is reported as inactive: -14.4%. COc1ccccc1C(=O)NCC1(N(C)C)CCCCC1 was tested, and the activity change, negative = inhibition was inactive: 2.41%. With CCCCOc1ccccc1C(=O)NCC1(N2CCOCC2)CCCCC1 the activity change, negative = inhibition was inactive: -22.3%. With O=C(NCC1(N2CCOCC2)CCCCC1)c1ccccc1Br the activity change, negative = inhibition was inactive: -9.92%. For CCCOc1cccc(C(=O)NCC2(N3CCOCC3)CCCCC2)c1, the activity change, negative = inhibition was inactive: 1.9%. In the case of CCc1cc(C(=O)NCC2(N3CCOCC3)CCCCC2)sc1C, the activity change, negative = inhibition is reported as inactive: -7.81%. With CCOc1ccc(C(=O)NCC2(N3CCOCC3)CCCCC2)cc1 the activity change, negative = inhibition was inactive: 6.19%. O=C(NCC1(N2CCOCC2)CCCCC1)c1ccccc1 was tested, and the activity change, negative = inhibition was inactive: 59.7%. With O=C(NCC1(N2CCOCC2)CCCCC1)c1ccc([N+](=O)[O-])cc1 the activity change, negative = inhibition was inactive: -1.64%. In the case of CC1C(=O)CCN(CCc2ccccc2)C1C (stereo not drawn), the activity change, negative = inhibition is reported as inactive: -0.157%. For O=C(NCC1(N2CCOCC2)CCCCC1)c1ccccc1[N+](=O)[O-], the activity change, negative = inhibition was inactive: -13.4%. With Cc1cc(NC2CCN(Cc3ccccc3)CC2)ccc1Br the activity change, negative = inhibition was inactive: 1.21%. For COc1cc(C(=O)NCC2(N3CCOCC3)CCCCC2)cc(OC)c1OC, the activity change, negative = inhibition was inactive: -11.3%. For CCCOc1ccc(C(=O)NCC2(N(C)C)CCCCC2)cc1, the activity change, negative = inhibition was inactive: -2.31%. With CC(C)(C)c1ccc(C(=O)NCC2(N3CCOCC3)CCCCC2)cc1 the activity change, negative = inhibition was inactive: -17.5%. For CC1CN(CCc2ccccc2)C(C)CC1=O (stereo not drawn), the activity change, negative = inhibition was inactive: 5.21%. In the case of Cc1ccccc1C(=O)NCC1(N(C)C)CCCCC1, the activity change, negative = inhibition is reported as inactive: -6.19%. With CN(C)C1(CNC(=O)c2cc3c(s2)CCC3)CCCCC1 the activity change, negative = inhibition was inactive: -19.1%. For CN(C)C1(CNC(=O)c2ccc(C(C)(C)C)cc2)CCCCC1, the activity change, negative = inhibition was inactive: -7.32%.

— PubChem BioAssay AID1347428 (National Center for Advancing Translational Sciences (NCATS), 2020)
Further: nearly all actives have a fitted effect of over 25% in size.
On the % scale 0 is the no-effect control and ±100 the full control effect.
